Measured values: publication PMC11881561 (Antimicrobial Agents and Chemotherapy, 2025)

Amino acid sequences for entries named in this document (tags omitted). Residues count along the entry.
UniProt Q9F663, 27-293 H272Y: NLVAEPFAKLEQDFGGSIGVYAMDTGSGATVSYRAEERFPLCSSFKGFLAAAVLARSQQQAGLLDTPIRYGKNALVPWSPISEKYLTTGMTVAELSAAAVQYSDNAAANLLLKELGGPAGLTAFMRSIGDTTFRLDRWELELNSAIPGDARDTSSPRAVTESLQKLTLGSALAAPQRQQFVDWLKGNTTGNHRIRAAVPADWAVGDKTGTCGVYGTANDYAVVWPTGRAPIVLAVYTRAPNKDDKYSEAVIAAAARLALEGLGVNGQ
UniProt Q9F663, 27-293 D178Y/H272Y: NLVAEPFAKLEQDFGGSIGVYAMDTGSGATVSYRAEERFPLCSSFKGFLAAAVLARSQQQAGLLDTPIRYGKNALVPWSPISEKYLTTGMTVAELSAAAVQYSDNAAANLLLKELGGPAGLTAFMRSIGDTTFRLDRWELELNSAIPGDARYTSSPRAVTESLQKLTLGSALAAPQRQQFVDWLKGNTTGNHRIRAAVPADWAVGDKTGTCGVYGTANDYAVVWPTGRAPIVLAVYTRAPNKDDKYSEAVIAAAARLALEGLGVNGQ
UniProt Q9F663, 25-293 D178Y: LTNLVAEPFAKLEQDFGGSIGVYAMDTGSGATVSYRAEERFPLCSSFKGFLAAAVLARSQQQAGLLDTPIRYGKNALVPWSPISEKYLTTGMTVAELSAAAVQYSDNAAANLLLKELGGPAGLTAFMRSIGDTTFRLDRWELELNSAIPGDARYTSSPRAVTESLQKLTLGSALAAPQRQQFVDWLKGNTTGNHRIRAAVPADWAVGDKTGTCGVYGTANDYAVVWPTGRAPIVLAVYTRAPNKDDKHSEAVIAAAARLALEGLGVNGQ
UniProt Q9F663, 25-293 V239G: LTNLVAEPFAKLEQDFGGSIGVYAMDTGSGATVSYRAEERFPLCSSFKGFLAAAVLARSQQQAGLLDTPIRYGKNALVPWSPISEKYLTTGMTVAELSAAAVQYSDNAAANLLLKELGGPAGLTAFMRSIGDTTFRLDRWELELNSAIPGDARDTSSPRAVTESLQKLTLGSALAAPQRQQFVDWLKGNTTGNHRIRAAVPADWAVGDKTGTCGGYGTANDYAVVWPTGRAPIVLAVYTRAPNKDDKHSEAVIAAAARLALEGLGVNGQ
UniProt Q9F663, 27-293 V239G/H272Y: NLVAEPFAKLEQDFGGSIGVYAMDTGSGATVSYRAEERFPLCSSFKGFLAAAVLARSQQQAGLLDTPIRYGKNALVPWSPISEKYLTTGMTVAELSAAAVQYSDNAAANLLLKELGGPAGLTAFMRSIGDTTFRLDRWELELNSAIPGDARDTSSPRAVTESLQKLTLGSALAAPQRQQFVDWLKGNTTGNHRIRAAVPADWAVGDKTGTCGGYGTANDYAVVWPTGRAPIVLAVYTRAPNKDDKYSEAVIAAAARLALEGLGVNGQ
UniProt Q9F663, 25-293 D178Y/T242M: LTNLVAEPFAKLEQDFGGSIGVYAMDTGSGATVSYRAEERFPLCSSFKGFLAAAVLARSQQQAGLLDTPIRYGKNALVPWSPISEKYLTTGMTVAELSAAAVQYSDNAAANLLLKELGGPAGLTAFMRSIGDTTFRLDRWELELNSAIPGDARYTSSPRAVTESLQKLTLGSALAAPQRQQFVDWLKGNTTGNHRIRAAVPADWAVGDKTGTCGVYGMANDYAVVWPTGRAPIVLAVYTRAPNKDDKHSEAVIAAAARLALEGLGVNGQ
UniProt Q9F663, 27-293 D178Y/T242M/H272Y: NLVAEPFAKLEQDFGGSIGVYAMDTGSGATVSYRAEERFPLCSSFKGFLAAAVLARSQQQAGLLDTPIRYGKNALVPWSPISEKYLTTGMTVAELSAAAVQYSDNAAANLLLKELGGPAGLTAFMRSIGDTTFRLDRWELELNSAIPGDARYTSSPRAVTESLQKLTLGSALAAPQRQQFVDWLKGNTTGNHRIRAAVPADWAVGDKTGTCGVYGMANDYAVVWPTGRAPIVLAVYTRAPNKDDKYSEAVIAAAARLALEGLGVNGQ

How the values were obtained:
[1] = biological target: KPC-3 WT (Klebsiella pneumoniae, UniProt Q9F663, H272Y); type: biochemical; conditions: substrate hydrolysis by KPC-3 WT
[2] = biological target: KPC-3^D179Y (Klebsiella pneumoniae, UniProt Q9F663, D178Y/H272Y); test: β-lactam hydrolysis kinetics, purified KPC-3 D179Y; type: biochemical; conditions: substrate hydrolysis by KPC-3 D179Y
Experimental: (§1) Measurements to determine kinetic parameters for hydrolysis, and kinetic parameters for inhibition were performed at ambient temperature in PBS (pH 7.4) containing 0.1 mg/mL bovine serum albumin, using a PowerWaveXS plate reader (BioTek).
(§2) Assays to determine Michaelis-Menten kinetic parameters were performed by mixing variable amounts of enzymes (depending on the enzyme-substrate pair), with serial dilutions of different BL substrates and continuously monitoring the reduction in absorbance associated with BL hydrolysis ([28], [36], [40], [41]). Kinetic parameters were determined by plotting initial rates of hydrolysis (v) as a function of substrate concentration [S] and fitting the data to equation 1 using GraphPad Prism,
(§3) (1) v=[Et]×kcat×[S]/KM+[S]
(§4) where [Et] is the enzyme concentration, kcat the turnover number and KM the Michaelis constant.

[3] = biological target: KPC-2^D179Y (Klebsiella pneumoniae, UniProt Q9F663, D178Y); test: β-lactam hydrolysis kinetics, purified KPC-2 D179Y; type: biochemical; conditions: substrate hydrolysis by KPC-2 D179Y
Experimental: as §1, §2, §3, §4

[4] = biological target: KPC-2^V240G (Klebsiella pneumoniae, UniProt Q9F663, V239G); type: biochemical
[5] = biological target: KPC-3^V240G (Klebsiella pneumoniae, UniProt Q9F663, H272Y/V239G); type: biochemical
[6] = biological target: KPC-2^D179Y/T243M (Klebsiella pneumoniae, UniProt Q9F663, D178Y/T242M); test: β-lactam hydrolysis kinetics, purified KPC-2 D179Y/T243M; type: biochemical; conditions: substrate hydrolysis by KPC-2 D179Y/T243M
Experimental: as §1, §2, §3, §4

[7] = biological target: KPC-3^D179Y/T243M (Klebsiella pneumoniae, UniProt Q9F663, D178Y/H272Y/T242M); test: β-lactam hydrolysis kinetics, purified KPC-3 D179Y/T243M; type: biochemical; conditions: substrate hydrolysis by KPC-3 D179Y/T243M
Experimental: as §1, §2, §3, §4

[8] = system: wild-type KPC-2 and KPC-3 enzymes; type: biochemical, Klebsiella pneumoniae
[9] = system: D179Y-containing KPC-3 variants; type: biochemical, Klebsiella pneumoniae
[10] = biological target: KPC-2 D179Y-containing variants (Klebsiella pneumoniae, UniProt Q9F663, D178Y); type: biochemical

Structure (SMILES)	Km [1]	Km [2]	Km [3]	kcat [3]	Km [4]	Km [5]	Km [6]	kcat [6]	Km [7]	time for CTB hydrolysis to near completion [8]	CTB conversion [9]	time for CTB hydrolysis to near completion [10]
CC(C)(O/N=C(\C(=O)N[C@@H]1C(=O)N2C(C(=O)[O-])=C(C[n+]3ccccc3)CS[C@H]12)c1csc(N)n1)C(=O)O [CAZ, ceftazidime]	> 500 µM	15.5 ± 4.7 µM	0.6 ± 0.09 µM	(1.2 ± 0.04) × 10^−3 s^−1	> 500 µM	> 500 µM	1 ± 0.2 µM	(3.7 ± 0.13) × 10^−3 s^−1	14.6 ± 4.1 µM	–	–	–
Nc1nc(/C(=C/CC(=O)O)C(=O)N[C@@H]2C(=O)N3C(C(=O)O)=CCS[C@H]23)cs1 [CTB, ceftibuten]	–	–	–	–	–	–	–	–	–	within five minutes	30 – 40%	~ 50 minutes
